One substance from patent US20220143116A1 (priority 2019, published 2022) can be followed below.

In the assay the test system is mAPOBEC3. The class given is cell-based, murine.

For TNFα, the “induction of mAPOBEC3” value is reported as “sufficient to induce mAPOBEC3”.
